{"source": "patent US20020152038A1", "about": "“Selection method for aroma substances” (priority 2000, published 2002)", "key": {"[1]": {"test": "Headspace above the milkshake, SPME-GC, relative partition parameters", "assay_type": "physicochemical", "conditions": "headspace vs milkshake, 0.2% aroma mixture, 2 h at 35° C., SPME 15 min"}, "[2]": {"test": "Headspace above the lemonade, SPME, relative partition parameters", "assay_type": "physicochemical", "conditions": "headspace vs lemonade, 0.05% odorant mixture, 2 h at 35° C., SPME 15 min"}}, "note": "Only a part of the results on these compounds is given; other tests are left out."}
{"substance": "Musk, xylene", "values": [{"measurement": "Activity (logarithmic partition parameter above a milkshake)", "setting": "[1]", "value": "−2.648"}, {"measurement": "Activity (logarithmic partition parameter above lemonade)", "setting": "[2]", "value": "−2.789"}]}
